IC50 data for one compound are collected here from patent US20260144890A1, “ANTIBODY DRUG CONJUGATE COMPRISING NMT INHIBITOR CONJUGATED TO AN ANTIBODY” (MyricX Pharma Limited, priority 2024, published 2026).

The chains behind the UniProt entries cited, without tags or fusion partners.
UniProt P30419, whole entry: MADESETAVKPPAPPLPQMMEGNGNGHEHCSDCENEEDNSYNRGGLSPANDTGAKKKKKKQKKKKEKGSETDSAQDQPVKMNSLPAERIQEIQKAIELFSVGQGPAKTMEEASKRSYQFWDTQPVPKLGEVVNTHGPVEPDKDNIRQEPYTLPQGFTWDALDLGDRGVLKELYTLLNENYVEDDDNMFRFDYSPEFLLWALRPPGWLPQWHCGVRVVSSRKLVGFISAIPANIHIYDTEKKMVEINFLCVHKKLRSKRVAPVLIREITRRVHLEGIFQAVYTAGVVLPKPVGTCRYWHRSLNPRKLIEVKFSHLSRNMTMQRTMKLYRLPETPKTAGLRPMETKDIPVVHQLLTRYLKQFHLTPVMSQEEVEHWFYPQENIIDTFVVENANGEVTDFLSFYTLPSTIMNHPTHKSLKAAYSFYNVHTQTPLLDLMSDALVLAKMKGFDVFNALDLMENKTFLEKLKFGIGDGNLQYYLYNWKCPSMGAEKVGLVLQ

In one experiment the test system is SU-DHL-10 cell line. Briefly: Cell cytotoxicity in SU-DHL-10 cell line (CTG, 72 h). To be noted: read-out: SU-DHL-10 IC50; 72 h treatment.
A further experiment addresses HsNMT1 (Homo sapiens, UniProt P30419). As to the kind of experiment: HsNMT1 IC50 fluorescence-based assay (detection of CoA). The class given is biochemical. Particulars: read-out: HsNMT1 IC50.

Structures are written as SMILES. pIC50: −log10 of the molar value.

As for `CNCc1cnc2ccc(-c3ccc(F)c(F)c3OCCc3c(C(O)C(C)C)nn(C)c3C)cn12` (centres unmarked), the results for the pIC50 in the experiment on SU-DHL-10 cell line and at HsNMT1 were 9.00 and 8.70, respectively.
